In the supplement of paper PMC12317010:

Assay: collision cross section in nitrogen (drift tube, single-field); higher = larger gas-phase ion size
Conditions: ion mode: Positive
[1] = ion type: [M+Na], ion source: ESI
[2] = ion source: ESI, ion type: [M]+ (permanent cation)
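Further: chemical standards at 10 µM analysed by drift tube IMS-QTOF MS in about 3.95 torr nitrogen, mean of duplicate injections differing ≤1%, mass error below 10 ppm.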

In the case of `OCCOCCOCCOCCO` [Tetraethylene glycol], the “collision cross section in nitrogen” value [1] is reported as 141.4 Å².
For `CCC[N+](CCC)(CCC)CCC` [Tetrapropylammonium bromide], the “collision cross section in nitrogen” value (ion source: APCI, ion type: [M]+ (permanent cation)) was 146 Å² and the “collision cross section in nitrogen” value [2] was 146.2 Å².
In the case of `CCC[N+](CCC)(CCC)CCC` [Tetrapropylammonium hydroxide], the “collision cross section in nitrogen” value [2] is reported as 146.5 Å².
In the case of `CCOP(=S)(OCC)Oc1ncn(-c2ccccc2)n1` [Triazophos], the “collision cross section in nitrogen” value (ion type: [M+H], ion source: APCI) is reported as 171.2 Å², the “collision cross section in nitrogen” value (ion type: [M+H], ion source: ESI) is reported as 171.4 Å² and the “collision cross section in nitrogen” value [1] is reported as 180.2 Å².
